Results: PubChem BioAssay (Tox21)
“And” between values parts separate entries of the source, which are not always exact repeats. Identical values can stand only once. Only a part is listed here, and it is no random draw. Inconclusive results are not listed. The source made the active and inactive calls. Unless noted, calls follow the shape of the dose curve; as a rule, active = well fitted curve in the direction sought with a large enough effect in the repeat runs; inconclusive = weak or mixed curves; inactive = no such curve, though single readings can be large; an effect the other way counts as inactive or inconclusive.

Sequences of proteins named here, by UniProt entry; tags and fusion partners are left off. A change or cut given only in a name is not applied to a line headed by its entry.
UniProt P10275: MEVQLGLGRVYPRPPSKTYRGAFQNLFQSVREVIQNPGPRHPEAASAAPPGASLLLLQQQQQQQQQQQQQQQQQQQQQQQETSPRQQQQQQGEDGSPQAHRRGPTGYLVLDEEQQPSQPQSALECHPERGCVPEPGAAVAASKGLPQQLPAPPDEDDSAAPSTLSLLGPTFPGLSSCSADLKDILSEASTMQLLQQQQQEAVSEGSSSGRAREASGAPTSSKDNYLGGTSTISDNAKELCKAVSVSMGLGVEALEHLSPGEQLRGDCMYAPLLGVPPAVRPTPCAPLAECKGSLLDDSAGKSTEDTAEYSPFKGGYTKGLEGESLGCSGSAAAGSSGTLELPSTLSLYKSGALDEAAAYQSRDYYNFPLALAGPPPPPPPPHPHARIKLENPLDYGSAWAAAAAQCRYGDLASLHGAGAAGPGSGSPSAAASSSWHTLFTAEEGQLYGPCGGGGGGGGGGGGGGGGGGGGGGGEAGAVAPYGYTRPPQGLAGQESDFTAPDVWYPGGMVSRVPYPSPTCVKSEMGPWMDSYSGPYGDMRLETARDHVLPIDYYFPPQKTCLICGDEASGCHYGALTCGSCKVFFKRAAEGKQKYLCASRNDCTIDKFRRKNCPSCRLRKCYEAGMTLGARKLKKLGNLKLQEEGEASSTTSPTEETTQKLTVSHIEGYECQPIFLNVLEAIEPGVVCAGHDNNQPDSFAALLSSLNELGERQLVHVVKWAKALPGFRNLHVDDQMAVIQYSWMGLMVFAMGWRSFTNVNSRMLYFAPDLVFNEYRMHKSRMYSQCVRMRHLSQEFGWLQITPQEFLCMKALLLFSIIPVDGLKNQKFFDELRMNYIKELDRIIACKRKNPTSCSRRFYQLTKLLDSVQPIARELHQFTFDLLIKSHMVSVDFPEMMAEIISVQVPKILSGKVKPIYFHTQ
UniProt P06401: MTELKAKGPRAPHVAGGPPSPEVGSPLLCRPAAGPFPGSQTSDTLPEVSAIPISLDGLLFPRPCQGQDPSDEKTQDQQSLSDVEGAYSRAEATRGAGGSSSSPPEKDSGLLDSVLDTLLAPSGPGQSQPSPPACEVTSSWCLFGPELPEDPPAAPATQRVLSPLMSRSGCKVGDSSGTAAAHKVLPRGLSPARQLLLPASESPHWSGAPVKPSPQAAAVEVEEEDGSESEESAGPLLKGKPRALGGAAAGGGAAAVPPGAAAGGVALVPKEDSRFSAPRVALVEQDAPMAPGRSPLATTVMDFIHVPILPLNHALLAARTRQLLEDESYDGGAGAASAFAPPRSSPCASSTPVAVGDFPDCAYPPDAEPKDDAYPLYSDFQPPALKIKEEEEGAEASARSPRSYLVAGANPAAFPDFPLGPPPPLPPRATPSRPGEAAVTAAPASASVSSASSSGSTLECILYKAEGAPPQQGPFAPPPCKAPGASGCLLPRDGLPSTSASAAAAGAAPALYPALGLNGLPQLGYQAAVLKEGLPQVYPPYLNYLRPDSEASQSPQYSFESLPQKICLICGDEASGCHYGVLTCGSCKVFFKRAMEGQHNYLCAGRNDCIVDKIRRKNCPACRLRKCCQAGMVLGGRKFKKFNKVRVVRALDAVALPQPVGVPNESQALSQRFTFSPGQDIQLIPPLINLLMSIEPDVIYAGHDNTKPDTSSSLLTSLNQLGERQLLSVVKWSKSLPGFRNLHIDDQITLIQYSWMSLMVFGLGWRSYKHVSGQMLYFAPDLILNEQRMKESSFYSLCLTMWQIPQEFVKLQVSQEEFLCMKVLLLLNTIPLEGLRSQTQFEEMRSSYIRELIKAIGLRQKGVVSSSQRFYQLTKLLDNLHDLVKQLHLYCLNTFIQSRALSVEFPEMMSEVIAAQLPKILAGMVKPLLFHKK
UniProt P03372, whole entry, looked up: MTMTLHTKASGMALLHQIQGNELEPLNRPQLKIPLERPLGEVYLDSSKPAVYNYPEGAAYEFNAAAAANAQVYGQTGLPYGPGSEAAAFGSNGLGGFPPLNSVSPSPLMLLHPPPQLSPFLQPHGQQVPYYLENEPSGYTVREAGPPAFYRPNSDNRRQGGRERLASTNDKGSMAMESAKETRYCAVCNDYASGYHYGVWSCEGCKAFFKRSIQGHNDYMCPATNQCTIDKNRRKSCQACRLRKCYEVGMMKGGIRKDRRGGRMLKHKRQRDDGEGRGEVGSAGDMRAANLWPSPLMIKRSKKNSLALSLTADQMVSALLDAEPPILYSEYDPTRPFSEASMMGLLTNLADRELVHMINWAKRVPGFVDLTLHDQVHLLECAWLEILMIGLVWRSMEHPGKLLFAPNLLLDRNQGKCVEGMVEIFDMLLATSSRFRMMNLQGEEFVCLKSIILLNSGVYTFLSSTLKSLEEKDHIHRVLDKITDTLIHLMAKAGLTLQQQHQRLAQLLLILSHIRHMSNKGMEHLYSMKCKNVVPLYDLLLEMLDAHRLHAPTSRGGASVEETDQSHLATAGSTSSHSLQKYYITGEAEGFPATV
UniProt P16473, whole entry, looked up: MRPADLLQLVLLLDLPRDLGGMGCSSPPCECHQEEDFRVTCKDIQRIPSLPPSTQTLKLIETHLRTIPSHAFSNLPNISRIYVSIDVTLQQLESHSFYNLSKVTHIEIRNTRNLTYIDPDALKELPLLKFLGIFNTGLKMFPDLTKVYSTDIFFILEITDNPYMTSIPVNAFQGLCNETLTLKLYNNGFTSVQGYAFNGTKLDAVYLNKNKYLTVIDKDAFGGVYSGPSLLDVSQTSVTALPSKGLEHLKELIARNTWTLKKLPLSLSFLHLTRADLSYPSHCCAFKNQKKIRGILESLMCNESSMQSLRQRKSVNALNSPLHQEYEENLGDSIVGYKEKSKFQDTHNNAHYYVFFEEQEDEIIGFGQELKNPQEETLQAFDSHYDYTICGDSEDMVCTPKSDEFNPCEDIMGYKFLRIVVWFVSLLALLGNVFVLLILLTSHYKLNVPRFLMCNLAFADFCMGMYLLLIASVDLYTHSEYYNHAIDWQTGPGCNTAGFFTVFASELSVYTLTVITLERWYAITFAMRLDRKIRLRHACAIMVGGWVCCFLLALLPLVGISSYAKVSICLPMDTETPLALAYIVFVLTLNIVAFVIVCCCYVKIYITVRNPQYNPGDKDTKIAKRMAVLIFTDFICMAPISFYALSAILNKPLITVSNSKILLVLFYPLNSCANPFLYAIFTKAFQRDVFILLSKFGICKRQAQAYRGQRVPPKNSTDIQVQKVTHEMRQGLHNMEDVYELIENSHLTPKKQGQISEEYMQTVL

Tests used:
[1] = qHTS assay to identify small molecule agonists of the estrogen receptor beta (ER-beta) signaling pathway - cell viability counter screen (AID 1259380); details: ER-beta-bla HEK293T viability, CellTiter-Glo luminescence, 16 h; at 92.4 µM (top of the series) unless noted; also: nearly all actives have a fitted effect of over 30% in size
Outline: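 Compounds dissolved in DMSO were pin-transferred onto ER-beta-UAS-bla HEK293T cells that had settled 6 hr, and exposure ran 16 hr at 37C. Following the reporter read, CellTiter-Glo luminescence after 30 min at room temperature indicated cytotoxicity.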

[2] = target: Androgen receptor (Homo sapiens) (UniProt P10275); assay: qHTS assay to identify small molecule agonists of the androgen receptor (AR) signaling pathway in the presence of an antagonist (AID 1259381; calls by dose curve; also: nearly all actives have a fitted effect of over 15% in size); details: MDA-kb2 MMTV-luciferase, AR agonist + nilutamide, 16 h
[3] = target: Progesterone receptor (Homo sapiens) (UniProt P06401); assay: qHTS assay to identify small molecule antagonists of the progesterone receptor (PR) signaling pathway (AID 1346795; active = well fitted inhibition curve with a large enough effect in the signal ratio in the repeat runs, not every such curve was filed as active; the % refers to the signal ratio; also: potency is read from the fitted curve at half-maximal effect)
Outline: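 After 6 hr plating at 37C in 2% stripped-serum medium, PR-UAS-bla HEK293T cells got compounds, then 1 nM R5020. Sixteen hours later, LiveBLAzer substrate was applied for 2 hr at room temperature and fluorescence was recorded.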

[4] = qHTS assay to identify small molecule antagonists of the TGF-beta/Smad signaling pathway - cell viability counter screen (AID 1346824); details: SBE-bla HEK293T viability, CellTiter-Glo luminescence; at 76.8 µM (top of the series) unless noted; also: nearly all actives have a fitted effect of over 50% in size
Outline: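 SBE-bla HEK 293T cells, incubated overnight, then compound plus 0.25 ng/mL TGF-beta1 (stock added) for 5 hr at 37 C. Viability was read in the same wells by CellTiter-Glo luminescence after 30 min at room temperature.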

[5] = qHTS assay to identify small molecule agonists of the androgen receptor (AR) signaling pathway in the presence of an antagonist - cell viability counter screen (AID 1259379); also: nearly all actives have a fitted effect of over 25% in size; also: potency is read from the fitted curve at half-maximal effect;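 as to activity change, negative = cytotoxicity: MDA-kb2 human breast cancer cells carrying an MMTV luciferase reporter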
Outline: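 Each compound was tested at 15 concentrations on MDA-kb2 cells in the presence of 3.0uM nilutamide. Viability was measured by CellTiter-Fluor fluorescence after a 16 hr incubation at 37C in a CO2-free atmosphere.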

[6] = target: Estrogen receptor (Homo sapiens) (UniProt P03372); assay: qHTS assay to identify small molecule agonists of the estrogen receptor alpha (ER-alpha) signaling pathway in the presence of an antagonist (AID 1259383; calls by dose curve; also: top concentration of the series differs between compounds; nearly all actives have a fitted effect of over 15% in size); details: VM7Luc4E2 cells, ERE-luciferase, +ICI-182,780, 22 h; at 92.4 µM (top of the series) unless noted
[7] = target: Thyrotropin receptor (Homo sapiens) (UniProt P16473); assay: qHTS assay to identify small molecule antagonists of the thyroid stimulating hormone receptor (TSHR) signaling pathway (AID 1259385; calls by dose curve; also: nearly all actives have a fitted effect of over 20% in size); details: TSHR-HEK293 cAMP HTRF, TSH-stimulated antagonist mode; at 92.4 µM (top of the series) unless noted
[8] = qHTS assay to identify small molecule antagonists of the progesterone receptor (PR) signaling pathway - cell viability counter screen (AID 1346798); also: nearly all actives have a fitted effect of over 50% in size
Outline: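 Viability was determined by ATP-based luminescence (CellTiter-Glo) in PR-UAS-bla HEK293T cells cultured in 2% charcoal-stripped serum and incubated 16 hr with compounds under R5020 stimulation.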

[9] = qHTS assay to identify small molecule antagonists of the estrogen receptor beta (ER-beta) signaling pathway - cell viability counter screen (AID 1259382); details: ER-beta-UAS-bla HEK293T viability, CellTiter-Glo luminescence, 16 h; at 92.4 µM (top of the series) unless noted;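 also: HEK293T cells carrying ER-beta-UAS-bla reporter stimulated with estradiol; nearly all actives have a fitted effect of over 55% in size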
Outline: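 CellTiter-Glo ATP luminescence measured after the LiveBLAzer read in the same wells; ER-beta-UAS-bla HEK293T cells, 16 hr compound treatment with 1nM 17-beta-estradiol agonist at 37C, 5% CO2.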

[10] = qHTS assay to identify small molecule agonists of the estrogen receptor alpha (ER-alpha) signaling pathway in the presence of an antagonist - cell viability counter screen (AID 1259386);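 also: cells exposed to compounds for 22 h at 37 °C before the viability read; nearly all actives have a fitted effect of over 30% in size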; also: potency is read from the fitted curve at half-maximal effect
Outline: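 Using estrogen-depleted VM7Luc4E2 cells, the 15-concentration compound series was applied together with 10.0nM ICI-182,780 and incubated 22hr at 37C/5% CO2. Cell viability was then scored by CellTiter-Fluor.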
% is scaled to controls: 0 for no effect and ±100 for the full control effect.

Cc1cc([N+](=O)[O-])cc([N+](=O)[O-])c1O
inactive: activity change, negative = cytotoxicity [1] -9.39% | activation ([2]; at 92.4 µM (top of the series)) -9.95% and -10.1% | Potency [3] | viability change, negative = cytotoxic [4] -16.5%

O=C1C2CC=CCC2C(=O)N1SC(Cl)(Cl)C(Cl)Cl (centres undefined)
inactive: activation ([2]; at 92.4 µM (top of the series)) -9.15% and -11.1%

Cc1cc([N+](=O)[O-])c(O)c([N+](=O)[O-])c1
active: Potency [5] 55 µM
inactive: activation ([2]; at 92.4 µM (top of the series)) -3.99% | activation [6] 0.847% | activity change, negative = inhibition [7] -0.0246% | Potency [8] | viability change, negative = cytotoxic [4] 5.54%

CC(C)CCCCCCCOP(OCCCCCCCC(C)C)Oc1ccccc1
inactive: Potency [5] | activity change, negative = cytotoxicity [1] -1.73% | activity change, negative = cytotoxicity [9] -2.06% | activation [6] 1.01% | Potency [10] | Potency [3] | Potency [8] | viability change, negative = cytotoxic [4] -13.9%

O=C(Cl)OCCOC(=O)Cl
inactive: Potency [5] | activity change, negative = cytotoxicity [1] -2.27% | activation ([2]; at 92.4 µM (top of the series)) 0.0241% | activity change, negative = cytotoxicity [9] 0% | activity change, negative = inhibition [7] 0.873% | Potency [10] | Potency [3] | Potency [8] | viability change, negative = cytotoxic [4] -1.37%

COC(=O)Cl
inactive: Potency [5] | activity change, negative = cytotoxicity [1] -1.37% | activity change, negative = cytotoxicity [9] 3.73% | activation [6] -0.0467% | Potency [10] | Potency [3] | Potency [8] | viability change, negative = cytotoxic [4] 8.46%

O=[P+](Oc1ccccc1)Oc1ccccc1
inactive: Potency [5] | activity change, negative = cytotoxicity [1] 8.64% | activation ([2]; at 92.4 µM (top of the series)) 0.0204% | activity change, negative = cytotoxicity [9] 6.3% | activation [6] 0.819% | activity change, negative = inhibition [7] 0.692% | Potency [10] | Potency [3] | Potency [8] | viability change, negative = cytotoxic [4] -1.47%

CCCCC(CC)CO[P+](=O)OCC(CC)CCCC (centres undefined)
inactive: Potency [5] | activity change, negative = cytotoxicity [1] 3.98% | activity change, negative = cytotoxicity [9] 3.78% | activation [6] -0.862% | activity change, negative = inhibition [7] -0.587% | Potency [10] | Potency [3] | Potency [8] | viability change, negative = cytotoxic [4] -10%

CN(C(=O)Cc1ccc(Cl)c(Cl)c1)[C@H]1CC[C@@]2(CCCO2)C[C@@H]1N1CCCC1
inactive: Potency [5] | activity change, negative = cytotoxicity [1] -9.34% [at 42.5 µM] | activation ([2]; at 42.5 µM (top of the series)) 3.02% | activity change, negative = cytotoxicity [9] -1.68% [at 42.5 µM] | activation [6] -2.65% [at 42.5 µM] | Potency [10] | Potency [3] | viability change, negative = cytotoxic [4] 0.139% [at 35.3 µM]

CCOC(=O)Cl
inactive: Potency [5] | activity change, negative = cytotoxicity [1] -0.0063% | activity change, negative = cytotoxicity [9] -0.61% | activation [6] 0.23% | Potency [10] | Potency [3] | Potency [8] | viability change, negative = cytotoxic [4] 0.155%

ClP(Cl)c1ccccc1
inactive: Potency [5] | activity change, negative = cytotoxicity [1] 1.78% | activity change, negative = cytotoxicity [9] -0.415% | activation [6] -2.32% | Potency [10] | Potency [3] | Potency [8] | viability change, negative = cytotoxic [4] 4.62%

O=P(Cl)(Oc1ccccc1)Oc1ccccc1
inactive: Potency [5] | activity change, negative = cytotoxicity [1] 0.123% | activity change, negative = cytotoxicity [9] 0.998% | activation [6] -2.48% | activity change, negative = inhibition [7] 1.23% | Potency [10] | Potency [3] | Potency [8] | viability change, negative = cytotoxic [4] 8.98%

O=[N+]([O-])c1ccc(S(=O)(=O)O)c([N+](=O)[O-])c1
inactive: Potency [5] | activity change, negative = cytotoxicity [1] 1.77% | activity change, negative = cytotoxicity [9] -5.98% | activity change, negative = inhibition [7] 4.96% | viability change, negative = cytotoxic [4] -0.321%

O=P(Cl)(Cl)c1ccccc1
inactive: Potency [5] | activity change, negative = cytotoxicity [9] 3.01% | activation [6] -0.0118% | activity change, negative = inhibition [7] 1.23% | Potency [10] | Potency [3] | Potency [8] | viability change, negative = cytotoxic [4] 5.03%

CCC(C)(OOC(C)(C)C)OOC(C)(C)C
inactive: activity change, negative = cytotoxicity [5] 1.64% [at 19 µM] | activity change, negative = cytotoxicity [1] 0.479% [at 19 µM] | activity change, negative = cytotoxicity [9] 8.38% [at 19 µM] | activation [6] 1.7% [at 19 µM] | activity change, negative = inhibition [7] 0.826% [at 19 µM] | activity change, negative = cytotoxicity [10] 0.637% [at 19 µM] | activity change, negative = inhibition [3] 8.17% [at 18.9 µM] | activity change, negative = cytotoxicity [8] -8.95% [at 18.9 µM] | viability change, negative = cytotoxic [4] -0.612% [at 15.8 µM]

O=[As]c1ccccc1 (centres undefined)
inactive: activation ([2]; at 92.4 µM (top of the series)) -11.2% | activation [6] -15.4%
active: Potency [10] 8.63 µM | Potency [3] 0.77 µM
